Test results: patent publication US20250326733A1, “A NEW ROUTE FOR SY[…] CHIRAL CANNABINOIDS FROM COUMARINS” (University of Florida Research Foundation, Inc., priority 2021, published 2025)
Where two headings read alike, the source gives them in different places.

Amino acid sequences for entries named in this document (tags omitted).
UniProt P21554, whole entry: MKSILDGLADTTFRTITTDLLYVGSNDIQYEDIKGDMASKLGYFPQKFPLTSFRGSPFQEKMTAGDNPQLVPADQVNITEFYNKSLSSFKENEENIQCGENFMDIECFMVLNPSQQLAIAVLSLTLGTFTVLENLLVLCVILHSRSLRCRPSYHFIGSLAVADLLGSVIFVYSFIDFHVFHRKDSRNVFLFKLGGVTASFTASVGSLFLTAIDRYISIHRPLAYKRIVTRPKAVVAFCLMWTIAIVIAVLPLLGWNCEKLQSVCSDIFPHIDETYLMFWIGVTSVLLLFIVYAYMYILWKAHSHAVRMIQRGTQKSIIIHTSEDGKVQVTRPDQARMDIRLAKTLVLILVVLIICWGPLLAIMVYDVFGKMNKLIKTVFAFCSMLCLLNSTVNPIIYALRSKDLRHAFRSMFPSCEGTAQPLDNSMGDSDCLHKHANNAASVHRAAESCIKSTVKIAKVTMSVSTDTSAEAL
UniProt P34972, whole entry: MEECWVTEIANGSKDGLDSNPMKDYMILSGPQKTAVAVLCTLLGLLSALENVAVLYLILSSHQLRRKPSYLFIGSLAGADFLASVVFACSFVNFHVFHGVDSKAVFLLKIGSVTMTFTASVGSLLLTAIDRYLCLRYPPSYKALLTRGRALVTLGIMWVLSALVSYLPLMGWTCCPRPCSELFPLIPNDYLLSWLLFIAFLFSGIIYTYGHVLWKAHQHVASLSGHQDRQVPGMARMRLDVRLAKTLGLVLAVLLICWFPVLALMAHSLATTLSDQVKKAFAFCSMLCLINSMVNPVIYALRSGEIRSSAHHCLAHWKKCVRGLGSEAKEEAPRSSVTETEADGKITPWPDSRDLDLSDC

How the values were obtained:
hCB1R [1] = target: T1, hCB1R (Homo sapiens, UniProt P21554); test: Binding affinity at human cannabinoid receptor 1
hCB2R [2] = target: T2, hCB2R (Homo sapiens, UniProt P34972); test: Binding affinity at human cannabinoid receptor 2
hCB1R [3] = target: T1, hCB1R; test: Functional activity (agonism), TRUPATH assay of Gαiβ3γ9 protein activation; assay type: cell-based
hCB2R [4] = target: T2, hCB2R; test: as above; assay type: cell-based

**Q.** Which Ki (hCB1R [1]) does the source give for `CCCCCCC(C)(C)c1cc(O)c(-c2c(CO)cccc2C(C)C)c(OC)c1` here?
**A.** 2140 nM

**Q.** And the “pKi ± SEM” value (hCB1R [1])?
**A.** 5.67 ± 0.0821

**Q.** What about the “selectivity for hCB2R over hCB1R” value (hCB2R [2]) of the same compound?
**A.** 4.8 fold

**Q.** What about the Ki (hCB2R [2]; hCB2R) of the same compound?
**A.** 447 nM

**Q.** And the “pKi ± SEM” value (hCB2R [2]; hCB2R)?
**A.** 6.35 ± 0.0755

**Q.** What about the CB1/CB2 (hCB2R [2]; ratio of Ki hCB1R / hCB2R) of the same compound?
**A.** 4.8

**Q.** And the “agonism / efficacy (in words)” value (hCB1R [3])?
**A.** not at hCB1R at concentrations up to 31.6 μM

**Q.** What about the “agonism / efficacy (in words)” value (hCB2R [4]) of the same compound?
**A.** exhibited agonism

**Q.** What about the “agonism / efficacy (in words)” value (hCB2R [4]; listed as rac-axCBN-2) of the same compound?
**A.** selective CB2R agonist

**Q.** And the Emax (hCB2R [4]; mean ± SEM, n >= 3)?
**A.** 0.0839 ± 0.0176

**Q.** What about the pEC50 (hCB2R [4]; mean ± SEM, n >= 3) of the same compound?
**A.** 7.54 ± 0.381
